Consider one compound from US10640533B2, “Epoxyketone compounds for enzyme inhibition” (CENTRAX INTERNATIONAL, INC., priority 2014, dated 2020).

Data set [1] concerns the target 20S Immunoproteasome chymotrypsin-like (CT-L) activity (Homo sapiens (Human), UniProt P20618+P28062). As to the kind of experiment: 20S immunoproteasome CT-L activity inhibition, fluorogenic substrate succinyl-Leu-Leu-Val-Tyr-AMC. The format is biochemical. Conditions: read-out: Proteasome inhibition IC50 (nM) 20S Immunoproteasome CT-L; purified human 20S proteasome, room temperature, one hour.

In data set [2] the target is 20S Immunoproteasome trypsin-like (T-L) activity (Homo sapiens (Human), UniProt P40306+P49720). As to the kind of experiment: 20S immunoproteasome T-L activity inhibition, fluorogenic substrate Boc-Leu-Arg-Arg-AMC. The format is biochemical. Conditions: read-out: Proteasome inhibition IC50 (nM) 20S Immunoproteasome T-L; purified human 20S proteasome, room temperature, one hour.

The target in data set [3] is Constitutive 20S proteasome chymotrypsin-like (CT-L) activity (Homo sapiens (Human), UniProt P20618+P28074). As to the kind of experiment: Constitutive 20S proteasome CT-L activity inhibition, fluorogenic substrate succinyl-Leu-Leu-Val-Tyr-AMC. In kind it is biochemical.
The target of data set [4] is Constitutive 20S proteasome peptidylglutamyl peptide hydrolyzing (PGPH) activity (Homo sapiens (Human), UniProt P28072+Q99436). Put plainly: Constitutive 20S proteasome PGPH activity inhibition, fluorogenic substrate Z-Leu-Leu-Glu-AMC. In kind it is biochemical. Conditions: read-out: Proteasome inhibition IC50 (nM) Constitutive 20S proteasome PGPH; purified human 20S proteasome, room temperature, one hour.

The target of data set [5] is Constitutive 20S proteasome trypsin-like (T-L) activity (Homo sapiens (Human), UniProt P49720+Q99436). As to the kind of experiment: Constitutive 20S proteasome T-L activity inhibition, fluorogenic substrate Boc-Leu-Arg-Arg-AMC. In kind it is biochemical. Conditions: read-out: Proteasome inhibition IC50 (nM) Constitutive 20S proteasome T-L; purified human 20S proteasome, room temperature, one hour.

Data set [6] is described as follows: Aqueous solubility of the compounds. As to conditions: 50 mM citrate pH4.0, 25° C., 24 hours.
Data set [7] has as its system HT-29 human colorectal adenocarcinoma xenografts. Put plainly: Anti-tumor efficacy in mice bearing HT-29 human colorectal adenocarcinoma xenografts. As to conditions: intravenous, Days 1, 2 and 5 each week for 4-5 weeks; 2-way ANOVA; FIG. 2A. A general note: A xenograft is tissue or cells of one species grown in another, often human tumour cells in immunodeficient mice.

Data set [8] has as its system RL human lymphoma xenografts. Put plainly: Anti-tumor efficacy in mice bearing RL human lymphoma xenografts. Conditions: intravenous, Days 1, 2 and 5 each week for 4-5 weeks; 2-way ANOVA; FIG. 2B.

Where two headings read alike, the source gives them in different places. Some results are limits rather than exact numbers.

Consider `CC(C)C[C@@H](NC(=O)[C@@H](Cc1ccncc1)NC(=O)[C@@H](CCc1ccccc1)NC(=O)c1cc(CN2CCOCC2)on1)C(=O)[C@]1(C)CO1`, for which the IC50 is 0.92 nM in data set [1]; 14400 nM in data set [2]; 1.09 nM in data set [3] (read-out: Proteasome inhibition IC50 (nM) Constitutive 20S proteasome CT-L, purified human 20S proteasome, room temperature, one hour); under 5 nM in data set [3] (read-out: concentration showing inhibition (e.g. at least 50% inhibition) of CT-L activity of the 20S proteasome, form of 20S proteasome not stated, 'below about'); over 20000 nM in data set [4]; 15300 nM in data set [5]. Also, the “Aqueous solubility (mg/mL) at pH4.0 (50 mM citrate)” value in data set [6] is recorded as 2.88 mg/mL. In data set [7], the “tumor growth (tumor volume), HT-29 xenografts” value was “significantly suppressed tumor growth”. For the same compound, in data set [8], the “tumor growth (tumor volume), RL xenografts” value is given as “significantly suppressed tumor growth”.
